{
  "sequences": {"note": "Amino acid sequences for entries named in this document (tags omitted).", "UniProt P98170, whole entry": "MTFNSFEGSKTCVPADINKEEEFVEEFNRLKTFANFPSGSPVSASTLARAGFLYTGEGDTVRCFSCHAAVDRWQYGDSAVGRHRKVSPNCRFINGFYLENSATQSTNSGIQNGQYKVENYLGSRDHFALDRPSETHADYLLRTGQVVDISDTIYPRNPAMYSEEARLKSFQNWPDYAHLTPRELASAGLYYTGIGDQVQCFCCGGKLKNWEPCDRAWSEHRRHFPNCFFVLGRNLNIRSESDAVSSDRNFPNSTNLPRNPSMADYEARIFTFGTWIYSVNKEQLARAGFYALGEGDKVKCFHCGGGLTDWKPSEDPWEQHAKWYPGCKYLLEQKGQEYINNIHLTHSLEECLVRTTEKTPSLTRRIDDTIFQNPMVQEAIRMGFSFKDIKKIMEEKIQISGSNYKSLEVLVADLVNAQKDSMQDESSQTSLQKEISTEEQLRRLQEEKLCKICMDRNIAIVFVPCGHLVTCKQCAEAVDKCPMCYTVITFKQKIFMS"},
  "source": "paper PMC10681007",
  "about": "“Targeted Degradation of XIAP is Sufficient and Specific to Induce Apoptosis in MYCN-overexpressing High-risk Neuroblastoma” (Cancer Research Communications, 2023)",
  "key": {"[1]": {"target": "XIAP (Homo sapiens, UniProt P98170)", "assay": "NanoBRET ubiquitination assay", "type": "cell-based", "settings": "neuroblastoma cells with endogenous luminescent-tagged XIAP"}, "[2]": {"system": "XIAP and c-IAP1", "assay": "Immunoblot analysis of XIAP and c-IAP1 expression", "settings": "10 µmol/L", "source_text": "FIGURE 2 Specific loss of XIAP expression, not c-IAP1, is required for mediating apoptosis in high-risk neuroblastoma cells. A, Summary of IAP antagonists’ efficacy in killing neuroblastoma cells. The IAP antagonists were ranked on the basis of the average potency of killing (IC50) and specificity of killing toward only neuroblastoma cells: (i) A4, (ii) B3, (iii) BV6, (iv) LCL161, (v) CUDC-427, (vi) Debio 1143. B, Immunoblot analysis of c-IAP1, XIAP, PARP, and cleaved caspase-3 expression in neuroblastoma cell lines, BE(2)-C and KELLY, and noncancerous normal tissue cell line, HS5, after treatment with 10 µmol/L of either A4, B3, or BV6 at indicated timings (three independent replicates). C, Graphical representation showing the fold change of caspase-3/7 activity relative to vehicle controls after treatment with 10 µmol/L of either A4, B3, or BV6 at indicated timings (data were expressed as mean ± SD of three independent experiments conducted in duplicates; *, P < 0.05). D, Morphology of cells 48 hours posttreatment with 10 µmol/L of either A4, B3, or BV6. […]\nWhole cell lysates harvested were lysed in EBC buffer (pH 8.0 of 50 mM Tris, 0.5% NP-40, 120 mM sodium chloride) containing protease inhibitors and protein concentration were quantified using the Bradford assay (Thermo Fisher Scientific). […]"}, "[3]": {"system": "HS5 cells", "assay": "Apoptosis (cleaved PARP/caspase-3, Caspase-Glo 3/7)", "type": "cell-based", "settings": "10 µmol/L", "method": "The determination of caspase-3/7 levels as an indication for apoptosis activity was performed using a Caspase-Glo 3/7 assay kit from Promega according to manufacturer's instructions. Cells were seeded at 1 × 10^4 cells per well and treated with 10 µmol/L of IAP antagonists for various indicated timings, followed by bioluminescence measurement using luminescent plate reader, Tecan Infinite200 Pro. The activity of apoptosis was also measured by flow cytometry using the Dead Cell Apoptosis Kit with Annexin V FITC and PI (Thermo Fisher Scientific) according to manufacturer's instructions. Cells harvested from lentiviral infection were subjected to Annexin V (2.5 µL) and PI (40 ng/mL, 0.5 µL) staining, followed by flow cytometric analysis using BD LSRFortessa cell analyzer with excitation/emission spectra of 494 nm/518 nm for FITC and 535 nm/617 nm for PI.\nFIGURE 2 Specific loss of XIAP expression, not c-IAP1, is required for mediating apoptosis in high-risk neuroblastoma cells. A, Summary of IAP antagonists’ efficacy in killing neuroblastoma cells. […] C, Graphical representation showing the fold change of caspase-3/7 activity relative to vehicle controls after treatment with 10 µmol/L of either A4, B3, or BV6 at indicated timings (data were expressed as mean ± SD of three independent experiments conducted in duplicates; *, P < 0.05). […]"}, "[4]": {"assay": "Pharmacokinetics of A4 in neuroblastoma PDX mice (LC-MS/MS)", "method": "Neuroblastoma PDXs were treated with 10 mg/kg A4 via intraperitoneal injection. 150-200 μL of blood was taken from each mouse via cardiac puncture and tumors were harvested over the following time courses of 0, 0.5-, 1-, 2-, 4-, 24- and 48-hours post-dosing (n=3/time point). The concentrations of A4 in mice plasma were determined by LCMS/ MS in MRM positive mode.\nThe testing dose of A4 10 mg/kg was injected intraperitoneally into the orthotopic neuroblastoma PDXs. 150-200 μL of blood was taken from mice via cardiac puncture and tumors were harvested over the following time courses of 0, 0.5, 1, 2, 4, 24 and 48 hours post-dosing (n=3/time point). The concentrations of A4 in mouse plasma and tumor samples were determined and validated by a highly sensitive liquid chromatography tandem mass spectrometry (LC–MS/MS) method with multiple reaction monitoring (MRM) mode. The LC-MS/MS system consisted of Agilent 1290 ultra high-performance liquid chromatography (UHPLC) connected in tandem to Sciex QTRAP 5500 mass spectrometer system. Chromatographic separation was optimized using a liquid–liquid extraction and a reversed phase separation on a Kinetex F5 column (100 mm x 2.1 mm, 2.6 μm) with isocratic elution. Ethyl indole-2-carboxylate was used as the internal standard (IS). MRM transitions 441.2/189.0 (A4) and 190.1/114.1 (IS) were monitored with a dwell time of 300 msec and analyst 1.6.2 software (Sciex) was used to quantify the peaks with 1/x2 weighted linear regression."}},
  "note": "Read-outs that look alike come from different tables or passages of the source.",
  "data": [
    {"smiles": "COC(=O)c1[nH]c2ccc(Cl)cc2c1NC(=O)CN1CCN(Cc2ccccc2)CC1", "values": [
      {"measurement": "binding of ubiquitin to XIAP (BRET ratio)", "setting": "[1]", "value": "clear dose-dependent increase in BRET ratio"},
      {"measurement": "XIAP and c-IAP1 expression (immunoblot)", "setting": "[2]; BE(2)-C and KELLY cells", "value": "loss of XIAP expression over time with intact c-IAP1 expression"},
      {"measurement": "XIAP and c-IAP1 expression (immunoblot)", "setting": "[2]; HS5 cells", "value": "minimal change in XIAP expression with c-IAP1 remaining intact"},
      {"measurement": "apoptosis", "setting": "[3]", "value": "minimal apoptosis observed"},
      {"measurement": "Mean AUC0→48 (model), mouse plasma", "setting": "[4]; 10 mg/kg intraperitoneal", "value": 3.651, "unit": "µM·h"},
      {"measurement": "Mean AUC0→48 (model), mouse tumor", "setting": "[4]; 10 mg/kg intraperitoneal", "value": 24.947, "unit": "µM·h"},
      {"measurement": "Cmax", "setting": "[4]; read-out: Cmax, mouse plasma, 10 mg/kg intraperitoneal", "value": 600, "unit": "nM"},
      {"measurement": "Cmax", "setting": "[4]; read-out: Cmax, mouse tumor, 10 mg/kg intraperitoneal", "value": 4000, "unit": "nM"},
      {"measurement": "Cmax", "setting": "[4]; read-out: maximum modeled concentration (Cmax) in mouse plasma, 10 mg/kg intraperitoneal", "value": 600, "unit": "nM"},
      {"measurement": "Cmax", "setting": "[4]; read-out: maximum modeled concentration (Cmax) in tumor, 10 mg/kg intraperitoneal", "value": 4000, "unit": "nM"}
    ]}
  ]
}
